ChEMBL document CHEMBL2424526, “Thrombin inhibitory activity of some polyphenolic compounds” (Med Chem Res, 2013)

Key:
Prothrombin [1] = molecular target: T1, Prothrombin (Homo sapiens, UniProt P00734); experiment: Inhibition of human thrombin amidolytic activity using D-Phe-Pip-Arg-pNA as substrate at 0.1 to 1000 uM preincubated for 10 mins followed by substrate addition measured every 12 secs for 10 mins by spectrophotometric analysis
Outline: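 Human plasma thrombin (17.6 nM in 50 mM TBS pH 7.4) preincubated 10 min at 37 °C with compound (from 10 mM stocks in 50% DMSO; final DMSO 5%, final thrombin 15.8 nM), then added to 3 mM D-Phe-Pip-Arg-pNA stock. A415 read every 12 s for 10 min; Vmax per curve; IC50 estimated from inhibition curves.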

Prothrombin [2] = molecular target: T1, Prothrombin; experiment: Inhibition of human thrombin assessed as equilibrium association constant at 50 to 1000 uM by BIAcore analysis
Outline: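 Human plasma thrombin amine-coupled to a CM5 sensor chip from 50 mM acetate pH 6.0 (NHS/EDC activation, ethanolamine block). Running buffer PBS pH 7.4 at 25.0 °C. Each cycle at 10 μl/min: 900 s PBS baseline, 600 s polyphenol injection, 200 s PBS dissociation, then 0.1 M NaOH and 0.1 M HCl regeneration. Binding read as resonance units.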

Compound	inhibition (Prothrombin [1])	Ka (Prothrombin [2])
Oc1ccc(/C=C/c2cc(O)cc(O)c2)cc1	inactive	
Oc1cc(O)c2cc(O)c(-c3ccc(O)c(O)c3)[o+]c2c1		1.28 ×10⁸ /M
O=C(O)/C=C/c1ccc(O)c(O)c1	inactive	
COc1cc(/C=C/C(=O)O)ccc1O	inactive	

Activity calls are given as the source filed them. The calls are words filed in the database; no cut-off is given here.
